The experiment deals with NCI-H2228. As to conditions: Homo sapiens.

Activity calls are given as the source filed them. The rule behind the calls is not given here.

From ChEMBL document CHEMBL3785058, “Design and synthesis of novel 3-sulfonylpyrazol-4-amino pyrimidines as potent anaplastic lymphoma kinase (ALK) inhibitors” (Bioorg Med Chem Lett, 2016) come the findings set out here.

With `Cc1cc(Nc2ncc(Cl)c(Nc3ccccc3S(=O)(=O)C(C)C)n2)c(OC(C)C)cc1C1CCNCC1`, the TGI entry is “Active”.
